# System: human C3A liver cell cultures
# Assay: Microarray differential expression of cDNAs in treated human C3A liver cell cultures
# Format: cell-based
# Details: change vs untreated C3A cells
# From the text: Incyte clones represent template sequences derived from the LIFESEQ GOLD assembled human sequence database (Incyte Genomics). In cases where more than one clone was available for a particular template, the 5′-most clone in the template was used on the microarray. The GENEALBUM GEM series 1-6 microarrays (Incyte Genomics) contain 52,616 array elements which represent 17,472 annotated clusters and 35,144 unannotated clusters. The HUMAN GENOME GEM series 1-3 microarrays (Incyte Genomics) contain 28,626 array elements which represent 10,068 annotated clusters and 18,558 unannotated clusters. For the UNIGEM series microarrays (Incyte Genomics), Incyte clones were mapped to non-redundant Unigene clusters (Unigene database (build 46), NCBI; Shuler (1997) J Mol Med 75:694-698), and the 5′ clone with the strongest BLAST alignment (at least 90% identity and 100 bp overlap) was chosen, verified, and used in the construction of the microarray. The UNIGEM V microarray (Incyte Genomics) contains 7075 array elements which represent 4610 annotated genes and 2,184 unannotated clusters.
# To construct microarrays, cDNAs were amplified from bacterial cells using primers complementary to vector sequences flanking the cDNA insert. […] Amplified cDNAs were then purified using […]-400 columns (APB). Purified cDNAs were immobilized on polymer-coated glass slides. […]
smiles,measurement,value
"CC(C)OC(=O)C(C)(C)Oc1ccc(C(=O)c2ccc(Cl)cc2)cc1 [Fenofibrate, fenofibrate]",expression level of cDNA clone 1998269,2.31

# Reference: patent US6727066B2, “Genes expressed in treated human C3A liver cell cultures” (Incyte Corporation, priority 2000, dated 2004)
